Laboratory results as given in publication PMC7723054.
The list shows a part of the results.

T1: LIN28A (human?, UniProt Q9H9Z2 1-209)
T1 sequence: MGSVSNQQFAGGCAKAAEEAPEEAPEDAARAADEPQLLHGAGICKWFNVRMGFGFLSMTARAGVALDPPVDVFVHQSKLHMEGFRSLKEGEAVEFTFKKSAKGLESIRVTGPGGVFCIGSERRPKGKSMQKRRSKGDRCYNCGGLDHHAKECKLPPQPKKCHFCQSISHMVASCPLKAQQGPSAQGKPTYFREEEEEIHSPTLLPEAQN

T2: CIRBP (Homo sapiens, UniProt Q14011 1-172)
T2 sequence: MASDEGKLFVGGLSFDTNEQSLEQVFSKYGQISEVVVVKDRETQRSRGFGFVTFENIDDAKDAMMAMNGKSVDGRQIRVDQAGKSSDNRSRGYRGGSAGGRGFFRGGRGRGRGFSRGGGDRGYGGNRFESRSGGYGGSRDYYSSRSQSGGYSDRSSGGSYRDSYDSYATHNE

T3: DHX36 (Homo sapiens, UniProt Q9H2U1 1-1008)
T3 sequence: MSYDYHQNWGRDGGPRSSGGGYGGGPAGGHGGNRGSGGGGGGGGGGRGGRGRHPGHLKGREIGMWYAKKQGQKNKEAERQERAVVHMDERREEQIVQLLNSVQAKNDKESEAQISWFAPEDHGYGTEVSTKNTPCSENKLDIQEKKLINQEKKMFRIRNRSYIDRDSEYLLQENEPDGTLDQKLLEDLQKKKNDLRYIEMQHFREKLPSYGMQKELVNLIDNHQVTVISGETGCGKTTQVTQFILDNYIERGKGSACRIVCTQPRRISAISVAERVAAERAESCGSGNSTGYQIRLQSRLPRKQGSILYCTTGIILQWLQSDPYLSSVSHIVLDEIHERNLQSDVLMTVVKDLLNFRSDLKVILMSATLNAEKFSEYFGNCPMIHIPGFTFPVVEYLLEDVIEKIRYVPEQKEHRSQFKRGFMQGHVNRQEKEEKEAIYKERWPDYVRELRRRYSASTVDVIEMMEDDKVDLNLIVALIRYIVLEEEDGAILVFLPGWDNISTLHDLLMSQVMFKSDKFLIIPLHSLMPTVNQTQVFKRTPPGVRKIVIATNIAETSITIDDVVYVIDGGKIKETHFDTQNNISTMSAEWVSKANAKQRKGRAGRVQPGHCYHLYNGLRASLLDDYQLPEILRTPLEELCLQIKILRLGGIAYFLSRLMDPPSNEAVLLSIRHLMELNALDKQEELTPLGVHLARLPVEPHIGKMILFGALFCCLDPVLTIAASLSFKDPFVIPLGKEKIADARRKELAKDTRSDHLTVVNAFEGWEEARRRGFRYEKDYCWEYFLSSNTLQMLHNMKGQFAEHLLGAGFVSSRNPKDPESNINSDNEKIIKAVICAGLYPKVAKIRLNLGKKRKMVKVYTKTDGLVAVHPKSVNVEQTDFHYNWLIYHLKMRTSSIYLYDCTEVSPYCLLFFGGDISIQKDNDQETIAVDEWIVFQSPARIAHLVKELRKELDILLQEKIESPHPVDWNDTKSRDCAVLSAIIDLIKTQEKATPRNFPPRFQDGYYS

B1: hsa-mir-6745 (structured_RNA)
RNA: GGGAAAUAUGGCCCAUCGCUAUGCGUCCGGUGUACGAAGUUUCAGCCCUAGUGGCUAGCCCUGGGUCUAGCAGCCUAUGGCAGUGUCUGGUAAACACUGGUGGAGUCCUGGGGCUGAAGCUUCGUGCAC
B2: hsa-mir-541 (structured_RNA)
RNA: GGGAAUAGAGGCACGAACUGAACUUAGUGGUGUACGAAGUUUCAGCCCCACUCCAAAGUUCACAGAAUGGGUGGGCUGAAGCUUCGUGCAC
B3: hsa-mir-1538 (structured_RNA)
RNA: GGGACUGCUUAGAUAAGGAAACGCACCCGGUGUACGAAGUUUCAGCGCCUCGCUUCCUGCCGGCGCGGCGCUGAAGCUUCGUGCAC
B4: hsa-mir-103b-2 (structured_RNA)
RNA: GGGAAGUACCGCGAAAGGAAACCUUGUUGGUGUACGAAGUUUCAGCUGCUUGACCUGAAUGCUACAAGGCAGCUGAAGCUUCGUGCAC
B5: hsa-mir-6800 (structured_RNA)
RNA: GGGACGUGGAGCAGAACUAAACUUAACUGGUGUACGAAGUUUCAGCGCGGGGUGUGGUGGGGCUGGGGCUGGCCCCCUCCUCACACCUCGCUGAAGCUUCGUGCAC
B6: hsa-mir-920 (structured_RNA)
RNA: GGGAGGCAAGAGGAACGUCUAUGCGGUCGGUGUACGAAGUUUCAGCGACCUGGAUGUGUAGGAGCUAAGACACACUCCAGGGGGCUGAAGCUUCGUGCAC
B7: hsa-mir-3934 (structured_RNA)
RNA: GGGAAGCUAGAUACGCCACCCGUUGGAUGGUGUACGAAGUUUCAGCGGCAGGAGGCAGUGAAGUAACUUGCGCUGAAGCUUCGUGCAC
B8: hsa-mir-665 (structured_RNA)
RNA: GGGCAUCACAAUACGGAGCCAUGUGCUCGGUGUACGAAGUUUCAGCACCCAGGACUCUUUCAUGACCAGCUGAAGCUUCGUGCAC
B9: hsa-mir-4700 (structured_RNA)
RNA: GGGACAAUACCACCAUGCGAUUCCUAAGGGUGUACGAAGUUUCAGCGUGUCCUGAAAUUCACAGGACUGGCUGAAGCUUCGUGCAC
B10: hsa-mir-520f (structured_RNA)
RNA: GGGAAAUGCCAGCCAUGCUGCGGAUAUCGGUGUACGAAGUUUCAGCGCUUUCUGUGGUCAGAAAGAAAAGCAAGUGCUGAAGCUUCGUGCAC
B11: hsa-mir-6084 (structured_RNA)
RNA: GGGAAGAACUACGGGCAUAACGCAGUUUGGUGUACGAAGUUUCAGCCGGAGCCUCGCAGGGUCGGGCUCGGGCUCCCUAACCGUCUCCGCUUCUUCGCUGAAGCUUCGUGCAC
B12: hsa-mir-550b-1 (structured_RNA)
RNA: GGGAGUGAUCGUUAGACAAUUAGCAGUAGGUGUACGAAGUUUCAGCAAGACACUAUCUUACAACAACAGGGCUCUUGCUGAAGCUUCGUGCAC
B13: hsa-mir-5699 (structured_RNA)
RNA: GGGACCUUAUAACCAGCAAGUCCAAAACGGUGUACGAAGUUUCAGCCAAGAGGUGUGAGCCACACACACGCCUGGCCUCCUGGCUGAAGCUUCGUGCAC
B14: hsa-mir-5582 (structured_RNA)
RNA: GGGAAUAUCGCUGUCGCCCCGACUUACUGGUGUACGAAGUUUCAGCUAUAGCUACAUCAGUUAUAACUAUAUCAGUUAAAGCUGAAGCUUCGUGCAC
B15: hsa-mir-7974 (structured_RNA)
RNA: GGGAACAAGUGAGGCGGUACUUAAAAUAGGUGUACGAAGUUUCAGCACCACCCAGGCCUUAUGGCUUCAUAGCUGAAGCUUCGUGCAC
B16: hsa-mir-3686 (structured_RNA)
RNA: GGGAAACAGGGCAUCGGGCGAGUCUUAUGGUGUACGAAGUUUCAGCAGAUCACUUUUCUGCACUGGACAGUGAUCUGCUGAAGCUUCGUGCAC
B17: hsa-mir-224 (structured_RNA)
RNA: GGGACCACGGGUAGGAACAUAGCAAGCUGGUGUACGAAGUUUCAGCCGUUUAGUAGAUGAUUGUGCAUUGUUUCAAAAUGGCUGAAGCUUCGUGCAC
B18: hsa-mir-4667 (structured_RNA)
RNA: GGGAGAGGAGCAUAGGCAUGGAAGCCUCGGUGUACGAAGUUUCAGCGAACCCAAGAAAAGCUGACUUGGAGGUCCCGCUGAAGCUUCGUGCAC
B19: hsa-mir-2682 (structured_RNA)
RNA: GGGACAGGCUCCUCGUGAAAAGAGUCCAGGUGUACGAAGUUUCAGCGACGUCCAAUCUCUUUGGGACGCCGCUGAAGCUUCGUGCAC
B20: hsa-mir-4758 (structured_RNA)
RNA: GGGAAGGCGUGUGAGACCCUAUAAUCUGGGUGUACGAAGUUUCAGCGCUGGAGUAAGGGCACGCCCGGGGCUGCGCUGAAGCUUCGUGCAC
B21: hsa-mir-521-1 (structured_RNA)
RNA: GGGACGGGUAUCGUUUGUCACGCCUAGAGGUGUACGAAGUUUCAGCCUUUCUGUUGUCUAAAAGAAAAGAACGGCUGAAGCUUCGUGCAC
B22: hsa-mir-4522 (structured_RNA)
RNA: GGGACGCAAUUUGGUCAGGACAUGCAUAGGUGUACGAAGUUUCAGCGAUCCAGCCCAGGCUGGUUCCGCUGACGCUGAAGCUUCGUGCAC

Legend:
Test in all cases: FOREST: bead pull-down of RNA structure library v1, barcode microarray; U1A/LIN28A: 20 mM HEPES pH 7.5, 80 mM KCl, 20 mM NaCl, 10% glycerol, 2 mM DTT, 0.1 ug/uL BSA, 4 C; BG4/CIRBP/DHX36: 10 mM Tris-HCl pH 7.5, 100 mM KCl (or LiCl),; high values mean tight binding
U1A = U1A (Homo sapiens, UniProt P09012)
LIN28A = target: T1, LIN28A
CIRBP = target: T2, CIRBP
DHX36 = target: T3, DHX36

Binder | binding signal (U1A) [z-score] | binding signal (LIN28A) [z-score] | binding signal (CIRBP) [z-score] | binding signal (DHX36) [z-score]
B1 | 0.488 | 0.434 | -0.53 | 1.05
B2 | 2.12 | 0.432 | 0.475 | -0.445
B3 | 0.482 | 0.195 | 0.822 | 0.287
B4 | 0.474 | -0.514 | -0.954 | -0.805
B5 | 0.473 | 0.305 | 0.678 | 3.43
B6 | 0.473 | 0.785 | 0.86 | 1.08
B7 | 0.47 | 0.639 | -0.0978 | 0.174
B8 | 0.466 | -0.501 | -1.81 | 0.338
B9 | 0.462 | -0.318 | 0.388 | -0.764
B10 | 0.457 | 0.336 | 1.35 | 0.364
B11 | 0.456 | 0.115 | -0.672 | 0.479
B12 | 0.456 | 1.26 | 0.668 | 0.0263
B13 | 2.1 | 0.908 | -0.365 | 1.25
B14 | 0.456 | 0.19 | -0.414 | -0.619
B15 | 0.455 | 0.507 | 0.384 | -1.21
B16 | 0.455 | -0.237 | 0.549 | -0.0395
B17 | 0.454 | -1.15 | 0.00907 | -0.92
B18 | 0.45 | 1.1 | -0.0182 | 1.37
B19 | 0.45 | -0.17 | -0.562 | -0.478
B20 | 0.449 | 0.301 | -0.416 | -0.392
B21 | 0.448 | 0.00803 | -0.621 | 0.235
B22 | 0.444 | 1.34 | 1.38 | 0.765
